OPERA 2.9 data: properties

Data: OPERA 2.9 data sets, kmansouri/OPERA on GitHub.

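The numbers are reported measurements, compiled and curated for the OPERA QSAR suite. The files give a single number for a compound and property, which may rest on several reports. Method, purity and exact conditions of the single measurements are not given. The measured form (salt, isomer or mixture) is not always the one drawn. Some upstream entries may be estimates or bounds without being marked so.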

The melting point is given in degrees Celsius. Boiling points are in °C, nominally at 760 mmHg. logP is the log10 of the octanol-water partition coefficient; higher is more lipophilic. Water solubility is log10 of mol/L, nominally at 25 °C; higher is more soluble. Vapor pressures (log10 mmHg) refer to near room temperature, 15 to 30 °C; higher is more volatile. The Henry's law constant is on a log10 scale in atm·m3/mol (set defined at 25 °C); higher favours air over water. fu is the fraction unbound in human plasma, from 0 to 1. "–" marks a cell with nothing listed here.

Listed for CC(=O)N(CCN(C(C)=O)C(C)=O)C(C)=O: log Kow -0.09 and log solubility -2.279 (log10 mol/L). CCC(C)N[Si](C)(NC(C)CC)NC(C)CC (configuration not stated) has BP 245 °C and log VP -1.663 (log10 mmHg). NCc1ccc(CN)cc1 is reported with BP 276.7 °C and log Kow 0.56 and log VP -2.699 (log10 mmHg). The entry for CCOC(=O)/C(Cl)=C/c1cc(N2C(=O)C3=C(CCCC3)C2=O)ccc1Cl lists mp 112 °C and log solubility -6.839 (log10 mol/L) and log H -6.166 (log10 atm·m3/mol). The entry for FC(F)(F)C(F)(F)C(F)(F)C(F)(F)C(F)(F)C(F)(F)CCS lists mp -26 °C and BP 158 °C and log Kow 5.3 and log solubility -6.91 (log10 mol/L) and log VP 0.867 (log10 mmHg). C=C(C)C(=O)Oc1ccccc1 is reported with log Kow 2.74 and log solubility -2.495 (log10 mol/L) and log VP -2.255 (log10 mmHg). Listed for CCC[C@H]1CC[C@H]([C@H]2CC[C@H](CC)CC2)CC1: mp 65.7 °C and BP 323.7 °C and log solubility -7.772 (log10 mol/L) and log VP -3.618 (log10 mmHg).

Cc1ccc(S(=O)(=O)C(I)I)cc1 is reported with mp 136 °C and log Kow 2.66 and log VP -6.018 (log10 mmHg). For CC(CC(C)(C)C)CP(=O)(O)CC(C)CC(C)(C)C (configuration not stated) the data give BP 341.3 °C and log solubility -4.366 (log10 mol/L) and log VP -4.745 (log10 mmHg). For CC(C)(C)c1ccc(OCC2CO2)cc1 (configuration not stated) the data give mp -39 °C and log Kow 3.59 and log solubility -3.43 (log10 mol/L) and log VP -3.677 (log10 mmHg). Listed for CCC(C)(C)C1CCCCC1OC(C)=O (configuration not stated): log Kow 5.4 and log solubility -4.446 (log10 mol/L) and log VP -1.498 (log10 mmHg). For Cc1ccc(NS(=O)(=O)N(C)C)cc1 the data give log VP -6.238 (log10 mmHg) and log H -9.119 (log10 atm·m3/mol). CCOC(=O)CN(CC(=O)OCC)C(=O)Oc1c(C#N)c(C(=O)OC2C(C(C)(C)C)CC(C)CC2C(C)(C)C)c2[nH]c(-c3ccc(C(C)(C)C)cc3)nn12 (configuration not stated) is reported with mp 245.5 °C and log Kow 7.7 and log solubility -6.971 (log10 mol/L). The entry for Cc1ccc(OCC(=O)N(Cc2cccs2)c2cc[nH]n2)cc1 lists mp 117.6 °C and log Kow 2.4 and log solubility -4.395 (log10 mol/L).

For COc1cc(/N=N/c2cccc(S(=O)(=O)[O-])c2)ccc1Nc1nc(Nc2ccc(/N=N/c3cccc(S(=O)(=O)[O-])c3)cc2OC)nc(N(CCO)CCO)n1.[Na+].[Na+] the data give log Kow -3.31 and log VP -9.491 (log10 mmHg). For O=C(NCCCCCCNC(=O)NCc1ccccc1)NCc1ccccc1 the data give mp 221 °C and log Kow 2.4 and log solubility -6.827 (log10 mol/L). Listed for CO/N=C(\C(=O)N[C@@H]1C(=O)N2C(C(=O)O)=CCS[C@H]12)c1csc(N)n1: log solubility -3.224 (log10 mol/L) and plasma fu 0.7183. CC(C)CC1(C)OCC(CO)O1 (configuration not stated) has mp 50 °C and log Kow 1.57. The entry for CCn1cc[n+](C)c1.O=S(=O)([O-])C(F)(F)F lists mp -14.16 °C and log Kow -2.3. For CCOC(=O)C(F)F the data give mp -46 °C and log VP 1.353 (log10 mmHg). For CCOC(=O)C(CC)C(=O)OCC the data give log Kow 2.4 and log solubility -1.77 (log10 mol/L).

CCCCCCCCCCCC[n+]1ccccc1.[Cl-] has log Kow 0.271 and log VP -5.94 (log10 mmHg).

A selection of 2 entries from above:

compound	mp (°C)	BP (°C)	log Kow	log solubility (log10 mol/L)	log VP (log10 mmHg)	log H (log10 atm·m3/mol)	plasma fu
NCc1ccc(CN)cc1	–	276.7	0.56	–	-2.699	–	–
CCOC(=O)/C(Cl)=C/c1cc(N2C(=O)C3=C(CCCC3)C2=O)ccc1Cl	112	–	–	-6.839	–	-6.166	–